The values below are quoted from earlier work in paper PMC9355146, “Novel angiotensin-converting enzyme inhibitory peptides from tuna byproducts—milts: Preparation, characterization, molecular docking study, and antioxidant function on H2O2-damaged human umbilical vein endothelial cells” (Frontiers in Nutrition, 2022).

The chains behind the UniProt entries cited, without tags or fusion partners. Residues count along the entry.
UniProt G1TYT4, 1-1284: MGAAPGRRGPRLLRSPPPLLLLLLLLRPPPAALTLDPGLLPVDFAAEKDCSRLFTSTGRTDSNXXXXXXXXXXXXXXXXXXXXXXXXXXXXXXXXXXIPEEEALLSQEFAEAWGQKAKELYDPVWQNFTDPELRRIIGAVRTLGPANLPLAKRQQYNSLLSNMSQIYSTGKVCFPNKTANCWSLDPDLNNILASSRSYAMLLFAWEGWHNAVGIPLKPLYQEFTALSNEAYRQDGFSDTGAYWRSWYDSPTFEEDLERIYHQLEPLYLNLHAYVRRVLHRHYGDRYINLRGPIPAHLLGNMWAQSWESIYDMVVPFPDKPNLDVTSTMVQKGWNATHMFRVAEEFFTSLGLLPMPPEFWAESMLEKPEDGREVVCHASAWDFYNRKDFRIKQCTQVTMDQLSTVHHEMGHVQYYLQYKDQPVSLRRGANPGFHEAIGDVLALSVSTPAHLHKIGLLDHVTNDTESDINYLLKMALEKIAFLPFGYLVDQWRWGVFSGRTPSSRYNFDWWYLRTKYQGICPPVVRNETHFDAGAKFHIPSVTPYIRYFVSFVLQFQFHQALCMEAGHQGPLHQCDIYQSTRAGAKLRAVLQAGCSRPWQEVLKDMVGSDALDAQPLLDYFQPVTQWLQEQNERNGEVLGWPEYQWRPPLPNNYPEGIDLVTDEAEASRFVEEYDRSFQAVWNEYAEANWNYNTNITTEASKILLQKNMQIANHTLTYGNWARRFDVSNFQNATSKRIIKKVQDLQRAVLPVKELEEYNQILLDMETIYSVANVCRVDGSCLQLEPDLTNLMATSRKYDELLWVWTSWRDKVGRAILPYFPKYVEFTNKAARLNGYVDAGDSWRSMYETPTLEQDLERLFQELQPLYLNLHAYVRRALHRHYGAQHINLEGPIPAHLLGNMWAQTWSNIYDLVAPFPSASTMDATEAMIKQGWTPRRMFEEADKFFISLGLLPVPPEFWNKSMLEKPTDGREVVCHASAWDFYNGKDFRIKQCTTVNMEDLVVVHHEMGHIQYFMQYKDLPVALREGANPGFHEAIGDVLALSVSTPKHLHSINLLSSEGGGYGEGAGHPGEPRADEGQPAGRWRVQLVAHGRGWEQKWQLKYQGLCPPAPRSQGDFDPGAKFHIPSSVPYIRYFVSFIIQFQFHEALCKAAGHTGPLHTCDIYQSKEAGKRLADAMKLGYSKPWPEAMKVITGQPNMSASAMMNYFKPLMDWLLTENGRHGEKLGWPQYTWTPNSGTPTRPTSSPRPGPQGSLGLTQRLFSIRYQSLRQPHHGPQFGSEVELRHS

The target of the data set is ACE (Oryctolagus cuniculus, UniProt G1TYT4). As to conditions: cited from earlier work.

Converted amounts (≈) assume the structure as drawn. Read-outs that look alike come from different tables or passages of the source.

On to `CC(C)[C@H](N)C(=O)N[C@@H](CC(=O)O)C(=O)O`, for which the “IC50 on ACE” value (ACEi peptides from Antarctic krill) was 5610 µg/mL (≈ 24.2 mM).
Consider `CC(C)[C@H](N)C(=O)N[C@@H](C)C(=O)N1CCC[C@H]1C(=O)O`, for which the “IC50 on ACE” value (ACEi peptide from Ctenopharyngodon idella) is 1710 µg/mL (≈ 5.99 mM).
